Experimental data published in patent US11447493B2 (Kinnate Biopharma Inc., priority 2018, dated 2022).

By UniProt entry, the sequences of proteins in these tests, tags left out. Where a name states a change or a piece, a line headed by the entry shows the natural chain unless it says otherwise.
UniProt P50613: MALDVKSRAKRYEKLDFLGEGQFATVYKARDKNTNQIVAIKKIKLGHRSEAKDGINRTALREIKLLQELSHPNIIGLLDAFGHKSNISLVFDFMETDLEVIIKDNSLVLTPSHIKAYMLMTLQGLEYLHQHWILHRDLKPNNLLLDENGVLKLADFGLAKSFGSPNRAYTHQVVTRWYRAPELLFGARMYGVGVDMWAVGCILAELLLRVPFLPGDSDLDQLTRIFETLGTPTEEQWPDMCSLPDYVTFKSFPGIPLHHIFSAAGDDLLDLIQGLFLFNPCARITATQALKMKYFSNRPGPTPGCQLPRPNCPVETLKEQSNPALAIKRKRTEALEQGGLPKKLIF

Key:
[1] = target: CDK7/CycH/MAT1 (Homo sapiens (Human), UniProt P50613); experiment: Radiometric protein kinase assay (33PanQinase), Assay Condition A (thiol containing); assay type: biochemical; conditions: thiol containing (1.2 mM DTT), ATP 3.0 μM
Procedure: The IC50 profile of test compounds was determined using three protein kinases.
The compounds were provided as pre-weighed powders in vials. The compounds were dissolved to 1×10^−02M by adding DMSO. 100 μl of each of the resulting stock solutions were transferred into column 2 of four 96 well “master plates”.
Prior to testing, the 1×10^−02M stock solutions in column 2 of the master plates were subjected to a serial, semi-logarithmic dilution using 100% DMSO as a solvent. […] Column 1 and 7 were filled with 100% DMSO as controls. Subsequently, 2×10 μl from each well of the serial diluted copy plates were aliquoted with a 96 channel pipettor into two identical sets of “compound dilution plates”.
In the process, 90 μl H2O were added to each well of a set of compound dilution plates. To minimize potential precipitation, the H2O was added to each plate only a few minutes before the transfer of the compound solutions into the assay plates. Each plate was shaken thoroughly, resulting in a “compound dilution plate/10% DMSO”.
For the assays, 5 μl solution from each well of the compound dilution plates/10% DMSO were transferred into the assay plates. The final volume of the assay was 50 μl. All compounds were tested at 10 final assay concentrations in the range from 1×10^−04M to 3×10^−09M, in singlicate. The final DMSO concentration in the reaction cocktails was 1% in all cases.
All protein kinases were expressed in Sf9 insect cells or in E. coli as recombinant GST-fusion proteins or His-tagged proteins, either as full-length or enzymatically active fragments. All kinases were produced from human cDNAs and purified by either GSH-affinity chromatography or immobilized metal. Affinity tags were removed from a number of kinases during purification. The purity of the protein kinases was examined by SDS-PAGE/Coomassie staining, the identity was checked by mass spectroscopy.
A radiometric protein kinase assay (^33PanQinase® Activity Assay) was used for measuring the kinase activity of the three protein kinases. All kinase assays were performed in 96-well FlashPlates™ from PerkinElmer (Boston, Mass., USA) in a 50 μl reaction volume. The reaction cocktail was pipetted in four steps in the following order: • 20 μl of assay buffer (standard buffer) • 5 μl of ATP solution (in H2O) • 5 μl of test compound (in 10% DMSO) • 20 μl enzyme/substrate mix
The reaction cocktails were incubated at 30° C. for 60 minutes. The reaction was stopped with 50 μl of 2% (v/v) H3PO4, plates were aspirated and washed two times with 200 μl 0.9% (w/v) NaCl. Incorporation of ^33Pi was determined with a microplate scintillation counter (Microbeta, Wallac). All assays were performed with a BeckmanCoulter/SAGIAN™ Core System.
The median value of the counts in column 1 (n=8) of each assay plate was defined as “low control”. This value reflects unspecific binding of radioactivity to the plate in the absence of a protein kinase but in the presence of the substrate. The median value of the counts in column 7 of each assay plate (n=8) was taken as the “high control”, i.e. full activity in the absence of any inhibitor. The difference between high and low control was taken as 100% activity.
As part of the data evaluation the low control value from a particular plate was subtracted from the high control value as well as from all 80 “compound values” of the corresponding plate. The residual activity (in %) for each well of a particular plate was calculated by using the following formula: Res. Activity (%)=100×[(cpm of compound−low control)/(high control−low control)]
The residual activities for each concentration and the compound IC50 values were calculated using Quattro Workflow V3.1.1 (Quattro Research GmbH, Munich, Germany). […] The fitting method used was a least-squares fit.

[2] = target: CDK7 (Homo sapiens (Human), UniProt P50613); experiment: Radiometric protein kinase assay (33PanQinase), Assay Condition B (thiol-free); assay type: biochemical; conditions: thiol-free (1 mM TCEP)
Procedure: The IC50 profile of compounds was determined using one protein kinase in a customized, thiol free assay. […] Prior to testing, the 1×10^−03 M stock solutions in column 2 of the master plates were subjected to a serial, semi-logarithmic dilution using 100% DMSO as a solvent. […] Column 1 and 7 were filled with 100% DMSO as controls. Subsequently, 2×10 microliter from each well of the serial diluted copy plates were aliquoted with a 96 channel pipettor into two identical sets of “compound dilution plates”. All plates were barcoded for automated identification and tracking purposes. […] All compounds were stored as powder until being solubilized in DMSO. Solubilized compounds were stored as 1×10^−02M/100% DMSO stock solutions. Prior to the assay process, 90 microliters of H2O were added to each well of a set of compound dilution plates. To minimize potential precipitation, the H2O was added to each plate only a few minutes before the transfer of the compound solutions into the assay plates. Each plate was shaken thoroughly, resulting in compound dilution plates with a final of 10% DMSO. For each assay, 5 microliters of solution from each well of the compound dilution plates/10% DMSO were transferred into the assay plate. The final volume of the assay was 50 μl. All compounds were tested at 10 final assay concentrations in the range from 1×10^−05M to 3×10^−10 M, in singlicate. The final DMSO concentration in the reaction cocktails was 1% in all cases. […] This was done so there would be no interference with the key cysteines in the proteins of interest.
For data analysis, the median value of the counts in column 1 (n=8) of each assay plate was defined as “low control”. This value reflects unspecific binding of radioactivity to the plate in the absence of a protein kinase but in the presence of the substrate. The median value of the counts in column 7 of each assay plate (n=8) was taken as the “high control”, i.e. full activity in the absence of any inhibitor. The difference between high and low control was taken as 100% activity. As part of the data evaluation the low control value from a particular plate was subtracted from the high control value as well as from all 80 “compound values” of the corresponding plate. The residual activity (in %) for each well of a particular plate was calculated by using the following formula: Res. Activity (%)=100×[(cpm of compound−low control)/(high control−low control)]
The residual activities for each concentration and the compound IC50 values were calculated using Quattro Workflow V3.1.1 (Quattro Research GmbH, Munich, Germany; www.quattro-research.com). […] The fitting method used was a least-squares fit. As a parameter for assay quality, the Z′-factor (Zhang et al., J. Biomol. Screen. 2: 67-73, 1999) for the low and high controls of each assay plate (n=8) was used. ProQinase's criterion for repetition of an assay plate is a Z′-factor below 0.4 (Iversen et al., J. Biomol. Screen. 3: 247-252, 2006).

SMILES | IC50 [2] [µM] | IC50 [1] [µM]
C=CC(=O)Nc1ccc(C(=O)N2CC[C@@H](Nc3ncc4ccccc4n3)C2)cc1Cl [Example 88, (R)—N-(2-chloro-4-(3-(quinazolin-2-ylamino)pyrrolidine-1-carbonyl)phenyl)acrylamide] | 0.1 to 1 | 0.1 to 1
C=CC(=O)Nc1ccc(C(=O)N2CC[C@@H](Nc3cc4ccccc4cn3)C2)cc1 [Example 27, (R)-N-(4-(3-(isoquinolin-3-ylamino)pyrrolidine-1-carbonyl)phenyl)acrylamide] | 1 to 10 | –
C=CC(=O)N(C)c1ccc(C(=O)N2CC[C@@H](Nc3ncc4ccccc4n3)C2)cc1 [Example 74, (R)—N-methyl-N-(4-(3-(quinazolin-2-ylamino)pyrrolidine-1-carbonyl)phenyl)acrylamide] | 0.1 to 1 | 0.1 to 1
CN(C)C/C=C/C(=O)N(C)c1ccc(C(=O)N2CC[C@@H](Nc3ncc4ccccc4n3)C2)cc1 [Example 86, (R,E)-4-(dimethylamino)-N-methyl-N-(4-(3-(quinazolin-2-ylamino)pyrrolidine-1-carbonyl)phenyl)but-2-enamide] | – | 1 to 10
COc1cc(NC(=O)/C=C/CN(C)C)ccc1C(=O)N1CC[C@@H](Nc2ncc3ccccc3n2)C1 [Example 85, (R,E)-4-(dimethylamino)-N-(3-methoxy-4-(3-(quinazolin-2-ylamino)pyrrolidine-1-carbonyl)phenyl)but-2-enamide] | – | 1 to 10
C=CC(=O)Nc1ccc(C(=O)N2CC[C@@H](Nc3ncc4ccc(OC)cc4n3)C2)cc1 [Example 34, (R)-N-(4-(3-((7-methoxyquinazolin-2-yl)amino)pyrrolidine-1-carbonyl)phenyl)acrylamide] | – | 0.1 to 1
C=CC(=O)Nc1ccc(C(=O)N2CC[C@@H](Nc3ncc4ccccc4n3)C2)cc1 [Example 26, (R)-N-(4-(3-(quinazolin-2-ylamino)pyrrolidine-1-carbonyl)phenyl)acrylamide] | – | 0.1 to 1

The next lines start with results.

IC50 [2] [µM] | SMILES | IC50 [1] [µM]
1 to 10 | CCC(=O)Nc1ccc(C(=O)N2CC[C@@H](Nc3ncc4ccc(=O)n(C(C)C)c4n3)C2)cc1 [Example 61, (R)—N-(4-(3-((8-isopropyl-7-oxo-7,8-dihydropyrido[2,3-d]pyrimidin-2-yl)amino)pyrrolidine-1-carbonyl)phenyl)propionamide] | –
1 to 10 | CCC(=O)Nc1ccc(C(=O)N2CC[C@@H](Nc3ncc4ccccc4n3)C2)cc1 [Example 44, (R)—N-(4-(3-(quinazolin-2-ylamino)pyrrolidine-1-carbonyl)phenyl)propionamide] | –
1 to 10 | C=CC(=O)Nc1ccc(C(=O)N2CC[C@@H](Nc3ncc4ccc(C#N)cc4n3)C2)cc1 [Example 37, (R)—N-(4-(3-((7-cyanoquinazolin-2-yl)amino)pyrrolidine-1-carbonyl)phenyl)acrylamide] | –
0.1 to 1 | C=CC(=O)Nc1ccc(C(=O)N2CC[C@@H](Nc3ncc4ccccc4n3)C2)cc1F [Example 62, (R)—N-(2-fluoro-4-(3-(quinazolin-2-ylamino)pyrrolidine-1-carbonyl)phenyl)acrylamide] | –
1 to 10 | C=CC(=O)Nc1ccc(C(=O)N2CC[C@@H](Nc3ncc4cc(F)ccc4n3)C2)cc1 [Example 28, (R)-N-(4-(3-((6-fluoroquinazolin-2-yl)amino)pyrrolidine-1-carbonyl)phenyl)acrylamide] | –
0.1 to 1 | C=CC(=O)Nc1ccc(C(=O)N2CC[C@@H](Nc3ncc4ccc(S(C)(=O)=O)cc4n3)C2)cc1 [Example 33, (R)-N-(4-(3-((7-(methylsulfonyl)quinazolin-2-yl)amino)pyrrolidine-1-carbonyl)phenyl)acrylamide] | –
0.1 to 1 | C=CC(=O)Nc1ccc(C(=O)N2CC[C@@H](Nc3ncc4ccc(=O)n(C(C)C)c4n3)C2)cc1 [Example 43, (R)—N-(4-(3-((8-isopropyl-7-oxo-7,8-dihydropyrido[2,3-d]pyrimidin-2-yl)amino)pyrrolidine-1-carbonyl)phenyl)acrylamide] | –
